According to patent US12486292B2, “Prodrug platform useful to deliver amines, amides and phenols” (Changchun Changcheng Pharmaceutical Technology Co., LTD, priority 2019, dated 2025):

Columns and labels:
[1] = Mouse pharmacokinetic study 1: plasma PK of prodrug and dFdC; format: in vivo, C57BL/6 mice; details: i.v. or PO administration
Method: C57BL/6 mice used in this experiment were purchased from Beijing Vital River Laboratory Animal Technology Co., Ltd., and male mice with a body weight in the range of 16-19 g were tested for administration. The animals were housed with appropriate air conditions (temperature: 20-25° C.; humidity: 40%-70%; light/dark cycle: 12 hours), and were provided with the food and water ad lib.
The solution media for IV administration were DMSO:30% solutol HS-15:saline=10:10:80 (v/v/v). Test substances were dissolved in the media to obtain a clear solution, and filtered through PTFE to get a colorless clear solution for IV administration.
The solution media for oral administration were DMSO:30% solutol HS-15:saline=10:10:80 (v/v/v). Test substances were dissolved in the media to obtain a clear solution.
The animals were randomly divided into groups. All animals were fasted overnight (12-15 hours) before administration (but provided with water ad lib) and provided with foods 4 hours after the administration. […]
The pharmacokinetic (PK) profile of liver-targeted gemcitabine (dFdC) prodrug according to formula (I)/formula (A) (i.e., Compound 4) was evaluated in male C57BL/C mice following intravenous administration (i.v.) at an equivalent dose to 15 mg/kg of Gemcitabine or following oral administration (PO or i.g.) at a dose of 80 mg/kg. […]

[2] = Mouse pharmacokinetic study 1: liver exposure of dFdC and dFdU at 2 h

O=c1nc(N[P@@]2(=O)OCC[C@@H](c3cccc(Cl)c3)O2)ccn1[C@@H]1O[C@H](CO)[C@@H](O)C1(F)F
exposure of the prodrug in the systemic circulation [1]: significant exposure
release of dFdC from the prodrug in vivo (detection in the circulation) [1]: dFdC was released from the prodrug in vivo
dFdC levels in the liver ([2]; PO 80 mg/kg): significant levels of dFdC
dFdU levels in the liver compared with Gemcitabine i.v. administration group ([2]; either i.v. or PO): much less
dFdC levels in the liver ([2]; i.v., Gemcitabine 15 mg/kg or Compound 4 at equivalent dose): significant levels of dFdC
